Experiments:
monomeric L-selectin = molecular target: T1, monomeric L-selectin (Homo sapiens, UniProt P14151); assay: BIAcore surface plasmon resonance, immobilized glycosaminoglycan vs monomeric L-selectin; format: binding; conditions: GAG immobilized, 25° C.
T1 construct: purchased Genzyme-Techne
T1 sequence (P14151 39-332 limits assumed): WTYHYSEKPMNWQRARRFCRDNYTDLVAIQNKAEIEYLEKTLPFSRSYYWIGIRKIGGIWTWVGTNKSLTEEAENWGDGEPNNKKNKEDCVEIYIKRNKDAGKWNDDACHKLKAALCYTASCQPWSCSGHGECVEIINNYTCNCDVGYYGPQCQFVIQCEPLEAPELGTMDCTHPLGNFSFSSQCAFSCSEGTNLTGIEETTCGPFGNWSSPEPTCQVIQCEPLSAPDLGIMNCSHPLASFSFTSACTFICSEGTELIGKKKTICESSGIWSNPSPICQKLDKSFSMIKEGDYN
Method: (§1) Affinity kinetics of the interaction between various CS/DS chains and each of L-selectin, P-selectin, CD44 and chemokine were examined by surface plasmon resonance using BIAcore™ biosensor [manufactured by BIAcore AB].
(§2) All experiments were performed at 25° C. At stages of washing and dissociation, buffer C (20 mM HEPES-NaOH, 0.15M NaCl, 1 mM CaCl2, 1 mM MgCl2, pH6.8) was used as a running buffer.
(§3) First, about 1.8 to 2.0 kiloresonance unit (1 kiloresonance unit=1 ng/mm^2) of streptavidin were covalently immobilized onto B1 sensor chip via a primary amine group using an amine coupling kit [manufactured by Amercham-Bioscience] according to the instruction provided by the manufacturer. […]
(§4) Binding assay was performed by injecting continuously each of various concentrations of secondary lymphoid tissue chemokine, γ-interferon inducible protein-10, stromal cell-derived factor-1β, monomeric L-selectin [manufactured by Genzyme-Techne], monomeric P-selectin [manufactured by Genzyme-Techne] and monomeric CD44, to a glycosaminoglycan-coupled sensor tip at a flow rate of 30 μl/min for 0 to 90 seconds, and then injecting a running buffer thereto. A response in resonance unit was recorded as a function of a time. […]
(§5) An affinity kinetic parameter was determined by BIAevaluation 3.0 software [manufactured by Pharmacia Biosensor] using a single site binding model. […]

monomeric P-selectin = molecular target: T2, monomeric P-selectin (Homo sapiens, UniProt P16109); assay: BIAcore surface plasmon resonance, immobilized glycosaminoglycan vs monomeric P-selectin; format: binding; conditions: GAG immobilized, 25° C.
T2 construct: purchased Genzyme-Techne
T2 sequence (P16109 42-771 limits assumed): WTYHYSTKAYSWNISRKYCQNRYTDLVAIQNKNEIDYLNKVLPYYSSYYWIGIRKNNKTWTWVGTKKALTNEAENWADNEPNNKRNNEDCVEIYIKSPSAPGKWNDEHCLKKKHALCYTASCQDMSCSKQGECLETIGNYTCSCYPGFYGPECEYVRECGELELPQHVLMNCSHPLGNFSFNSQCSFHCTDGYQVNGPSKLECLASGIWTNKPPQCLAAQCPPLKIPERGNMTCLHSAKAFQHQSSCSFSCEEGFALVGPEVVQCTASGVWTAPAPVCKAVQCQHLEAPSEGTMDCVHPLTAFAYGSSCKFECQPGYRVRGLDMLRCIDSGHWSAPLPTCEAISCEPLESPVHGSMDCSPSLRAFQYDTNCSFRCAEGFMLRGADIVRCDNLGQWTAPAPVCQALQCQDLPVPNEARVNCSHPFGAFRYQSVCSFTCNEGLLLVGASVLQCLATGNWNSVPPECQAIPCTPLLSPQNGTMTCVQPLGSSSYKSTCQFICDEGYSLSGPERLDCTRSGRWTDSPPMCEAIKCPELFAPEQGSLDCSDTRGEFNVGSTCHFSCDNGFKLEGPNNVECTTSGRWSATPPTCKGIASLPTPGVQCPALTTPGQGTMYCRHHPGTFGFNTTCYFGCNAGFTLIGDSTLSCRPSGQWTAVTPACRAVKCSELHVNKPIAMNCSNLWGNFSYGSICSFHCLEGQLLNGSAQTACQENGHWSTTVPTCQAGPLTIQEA
Method: as §1, §2, §3, §4, §5

- Kd (monomeric L-selectin): 21.1 nM
- Kd (monomeric P-selectin): 27.7 nM
Substance: dermatan polysulfate [DPS]

From patent US20060211651A1, “Persulfated oligosaccharide acting on selectins and chemokine” (Taisho Pharmaceutical Co., Ltd., priority 2002, published 2006)
